Results reported in paper PMC4309560, “Creating Novel Activated Factor XI Inhibitors through Fragment Based Lead Generation and Structure Aided Drug Design” (PLoS ONE, 2015).

Sequences of proteins named here, by UniProt entry; tags and fusion partners are left off. Residues count along the entry.
UniProt P03951, 19-387: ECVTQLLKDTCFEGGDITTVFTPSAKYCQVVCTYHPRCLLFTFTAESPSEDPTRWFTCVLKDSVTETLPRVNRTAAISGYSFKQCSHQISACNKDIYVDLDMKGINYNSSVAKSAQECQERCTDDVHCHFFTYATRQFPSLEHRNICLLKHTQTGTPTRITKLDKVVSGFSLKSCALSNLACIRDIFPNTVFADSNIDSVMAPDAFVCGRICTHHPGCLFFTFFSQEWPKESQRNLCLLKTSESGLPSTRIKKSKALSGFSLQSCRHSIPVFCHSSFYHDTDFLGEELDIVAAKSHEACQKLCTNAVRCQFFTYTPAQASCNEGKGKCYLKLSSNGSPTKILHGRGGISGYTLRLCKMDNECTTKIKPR
UniProt P03951, 388-625: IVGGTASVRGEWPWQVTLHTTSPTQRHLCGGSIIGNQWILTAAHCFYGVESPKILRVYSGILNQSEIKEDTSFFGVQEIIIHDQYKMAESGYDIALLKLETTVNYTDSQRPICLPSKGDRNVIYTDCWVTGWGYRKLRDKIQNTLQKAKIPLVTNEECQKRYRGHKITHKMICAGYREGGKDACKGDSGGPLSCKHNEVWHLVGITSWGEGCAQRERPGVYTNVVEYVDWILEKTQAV

Target: T1, Human FXIa (Homo sapiens, UniProt P03951)
T1 construct: purchased HTI, Essex Junction, USA
Experiment: FXIa enzymatic chromogenic assay
Type: biochemical

## 6-methyl-3,4-dihydro-1H-quinolin-2-one [Compound 17]
  IC50: > 1000 µM
